Earlier results, collected in patent US20130267526A1, “HETEROCYCLIC COMPOUNDS AND THEIR USES” (Amgen, Inc., priority 2010, published 2013).

By UniProt entry, the sequences of proteins in these tests, tags left out. Where a name states a change or a piece, a line headed by the entry shows the natural chain unless it says otherwise.
UniProt P42338: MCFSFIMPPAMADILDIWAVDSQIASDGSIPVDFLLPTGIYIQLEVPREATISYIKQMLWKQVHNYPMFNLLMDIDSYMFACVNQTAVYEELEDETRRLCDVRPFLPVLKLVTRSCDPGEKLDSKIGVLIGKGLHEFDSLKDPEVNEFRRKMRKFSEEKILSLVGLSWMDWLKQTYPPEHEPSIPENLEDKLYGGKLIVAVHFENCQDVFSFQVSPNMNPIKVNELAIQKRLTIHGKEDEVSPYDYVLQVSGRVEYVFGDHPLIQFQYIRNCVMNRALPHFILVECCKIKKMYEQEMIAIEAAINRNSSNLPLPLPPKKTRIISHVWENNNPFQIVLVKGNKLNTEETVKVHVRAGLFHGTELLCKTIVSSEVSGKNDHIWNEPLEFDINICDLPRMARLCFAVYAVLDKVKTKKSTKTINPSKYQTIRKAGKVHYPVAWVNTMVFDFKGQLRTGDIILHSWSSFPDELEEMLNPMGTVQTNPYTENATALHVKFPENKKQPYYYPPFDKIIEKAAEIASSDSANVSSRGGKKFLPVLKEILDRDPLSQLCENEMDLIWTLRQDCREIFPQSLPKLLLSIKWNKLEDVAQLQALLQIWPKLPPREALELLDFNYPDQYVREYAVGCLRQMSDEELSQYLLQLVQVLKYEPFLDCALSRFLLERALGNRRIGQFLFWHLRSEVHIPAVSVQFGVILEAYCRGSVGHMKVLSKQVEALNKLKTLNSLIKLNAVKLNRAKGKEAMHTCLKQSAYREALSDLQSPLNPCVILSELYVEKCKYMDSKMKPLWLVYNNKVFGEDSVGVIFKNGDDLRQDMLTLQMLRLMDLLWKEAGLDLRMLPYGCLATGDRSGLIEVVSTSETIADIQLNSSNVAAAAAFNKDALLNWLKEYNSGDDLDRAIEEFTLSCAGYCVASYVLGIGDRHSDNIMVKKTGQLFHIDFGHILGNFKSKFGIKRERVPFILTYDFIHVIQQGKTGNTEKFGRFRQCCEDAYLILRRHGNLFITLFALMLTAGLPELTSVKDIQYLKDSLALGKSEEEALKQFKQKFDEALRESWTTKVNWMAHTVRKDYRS

Molecular target: p110β (Homo sapiens, UniProt P42338)
Settings: read-out: potency on beta

Structure (SMILES): Cc1cc(C(C)Nc2ccccc2)c2nc(N3CCOCC3)cc(=O)n2c1 (stereo not shown) [TGX-221]
- IC50: 7 nM
